Earlier results, collected in PMC4308941, “A crossover randomized comparative study of zofenopril and ramipril on cough reflex and airway inflammation in healthy volunteers” (Cough (London, England), 2014).

Conditions: based on urinary recovery; cited from earlier work

CCOC(=O)[C@H](CCc1ccccc1)N[C@@H](C)C(=O)N1[C@H](C(=O)O)C[C@@H]2CCC[C@@H]21 [ramipril]
extent of absorption: at least 56%
